pKi: −log10 of the molar value.
Key:
CYP2C8 = CYP2C8 (Homo sapiens, UniProt P10632); assay: in vitro; details: recombinant CYP2C8, probe paclitaxel
Cytochrome P450 2C8 = Cytochrome P450 2C8 (Homo sapiens, UniProt P10632)
Cytochrome P450 3A4 = Cytochrome P450 3A4 (Homo sapiens, UniProt P08684); assay: Mechanism based inhibition of human cytochrome P450 3A4 measured by midazolam hydroxylase activity; assay type: ADME
Cytochrome P450 3A2 = biological target: T1, Cytochrome P450 3A2 (Rattus norvegicus, UniProt P05183); assay: Mechanism based inhibition of rat cytochrome P450 CYP3A2; assay type: ADME
T1 sequence (P05183 whole entry): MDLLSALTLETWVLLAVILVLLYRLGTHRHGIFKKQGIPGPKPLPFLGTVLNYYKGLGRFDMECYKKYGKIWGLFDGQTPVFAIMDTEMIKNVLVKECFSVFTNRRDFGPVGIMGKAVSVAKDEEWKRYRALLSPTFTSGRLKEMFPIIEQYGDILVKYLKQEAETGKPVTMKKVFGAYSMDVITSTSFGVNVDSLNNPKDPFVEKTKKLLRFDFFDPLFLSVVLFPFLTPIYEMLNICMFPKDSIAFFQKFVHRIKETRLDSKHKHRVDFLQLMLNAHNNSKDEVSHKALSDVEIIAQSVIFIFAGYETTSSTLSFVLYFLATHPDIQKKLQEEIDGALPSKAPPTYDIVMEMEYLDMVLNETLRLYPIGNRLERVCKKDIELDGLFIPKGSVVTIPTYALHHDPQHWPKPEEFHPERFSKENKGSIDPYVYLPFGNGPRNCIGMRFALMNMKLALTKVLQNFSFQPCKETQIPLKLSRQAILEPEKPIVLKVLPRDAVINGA

Amino acid sequences for entries named in this document (tags omitted).
UniProt P10632, whole entry: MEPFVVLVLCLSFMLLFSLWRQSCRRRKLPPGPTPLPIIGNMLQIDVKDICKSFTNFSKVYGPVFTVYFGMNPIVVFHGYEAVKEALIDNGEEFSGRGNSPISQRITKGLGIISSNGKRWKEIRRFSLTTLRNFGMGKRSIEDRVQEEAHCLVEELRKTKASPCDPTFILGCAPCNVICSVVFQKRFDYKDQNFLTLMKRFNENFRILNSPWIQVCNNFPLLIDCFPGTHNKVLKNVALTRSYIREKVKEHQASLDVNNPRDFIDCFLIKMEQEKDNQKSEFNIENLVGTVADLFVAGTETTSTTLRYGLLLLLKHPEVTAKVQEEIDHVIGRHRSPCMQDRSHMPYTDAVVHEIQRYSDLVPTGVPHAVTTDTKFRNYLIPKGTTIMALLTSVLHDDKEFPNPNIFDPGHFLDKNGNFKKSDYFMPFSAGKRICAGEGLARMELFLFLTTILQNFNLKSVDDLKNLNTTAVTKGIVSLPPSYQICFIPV

SMILES	kinact (CYP2C8)	pKi (Cytochrome P450 2C8)	mechanism based inhibition (Cytochrome P450 3A4)	mechanism based inhibition (Cytochrome P450 3A2)
CNCCC(Oc1ccc(C(F)(F)F)cc1)c1ccccc1 (centres undefined) [FLUOXETINE]	0.00138 s⁻¹	3.53	Cytochrome P450 mechanistic inhibitor: PMID 10950845	–
COc1ccc2c(c1)c(CC(=O)O)c(C)n2C(=O)c1ccc(Cl)cc1 [INDOMETHACIN]	–	–	–	Cytochrome P450 mechanistic inhibitor: PMID 1187510

Reference: ChEMBL document CHEMBL1743341, “Cytochrome p450 enzymes mechanism based inhibitors: common sub-structures and reactivity” (Curr Drug Metab, 2005)
